Series [1] has as its system CO/N=C(\C(=O)N[C@@H]1C(=O)N2C(C(=O)[O-])=C(C[N+]3(C)CCCC3)CS[C@H]12)c1csc(N)n1. Briefly: Activity of Pseudomonas aeruginosa VIM2 assessed as drug hydrolysis by spectrophotometry.
Series [2] shares this test system. Briefly: (§1) Ratio of Kcat to Km of Pseudomonas aeruginosa VIM2 assessed as drug hydrolysis by spectrophotometry.
The test system of series [3] is Nc1nc(/C(=N/O)C(=O)N[C@@H]2C(=O)N3C(C(=O)O)=C(/C=C4\CCN([C@@H]5CCNC5)C4=O)CS[C@H]23)ns1. The series is described as §1.

With “Beta-lactamase VIM-2 (Pseudomonas aeruginosa) (from UniProt Q9K2N0)”, in series [1], the Michaelis-Menten constant (Km) is 110 µM. The kcat in series [1] is 0.38 s⁻¹. For the same substance, the figures for the kcat/Km in series [2] and in series [3] were 3500 M⁻¹ s⁻¹ and 330000 M⁻¹ s⁻¹, respectively.

A word on the Km: it is the concentration of substrate that gives half-maximal velocity. The kcat is the number of substrate molecules converted per active site and unit of time at saturation. By kcat/Km is commonly meant the second-order rate constant that governs catalysis at low substrate concentration.
